Test results taken from patent US8846601B2, “Melanocortin receptor-specific peptides” (Palatin Technologies, Inc., priority 2009, dated 2014).

Protein sequences, listed by entry. Tags and fused reporters are not part of them.
UniProt P32245, whole entry: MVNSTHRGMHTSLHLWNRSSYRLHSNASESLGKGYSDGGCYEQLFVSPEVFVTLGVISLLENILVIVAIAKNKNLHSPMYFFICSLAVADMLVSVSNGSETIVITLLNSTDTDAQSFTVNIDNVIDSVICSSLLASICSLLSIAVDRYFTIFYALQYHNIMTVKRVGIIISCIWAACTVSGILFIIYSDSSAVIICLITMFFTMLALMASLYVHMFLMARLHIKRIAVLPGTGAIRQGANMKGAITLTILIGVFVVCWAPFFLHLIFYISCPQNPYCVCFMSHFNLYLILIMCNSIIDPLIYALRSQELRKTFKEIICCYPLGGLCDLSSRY

How the values were obtained:
hMC4-R [1] = target: T1, hMC4-R (Homo sapiens (Human), UniProt P32245); assay: Competitive inhibition binding assay using [I125]-NDP-α-MSH, hMC4-R membranes; conditions: averaged; [I125]-NDP-α-MSH (values not marked *); read-out: MC4-R Ki
Description: A competitive inhibition binding assay is performed using membrane homogenates prepared from HEK-293 cells that express recombinant hMC4-R, hMC3-R, or hMC5-R, and from B-16 mouse melanoma cells (containing endogenous MC1-R). In some instances, HEK-293 cells that express recombinant hMC1-R were employed. In the examples that follow, all MC3-R, MC4-R and MC5-R values are for human recombinant receptors. […] Membrane homogenates were incubated with 0.2 nM (for hMC4-R) 0.4 nM (for MC3-R and MC5-R) or 0.1 nM (for mouse B16 MC1-R or hMC1-R) [I^125]-NDP-α-MSH (Perkin Elmer) and increasing concentrations of test peptides of the present invention in buffer containing 25 mM HEPES buffer (pH 7.5) with 100 mM NaCl, 2 mM CaCl2, 2 mM MgCl2, 0.3 mM 1,10-phenanthroline, and 0.2% bovine serum albumin. After incubation for 60 minutes at 37° C., the assay mixture was filtered and the membranes washed three times with ice-cold buffer. Filters were dried and counted in a gamma counter for bound radioactivity. […] Maximal specific binding (100%) was defined as the difference in radioactivity (cpm) bound to cell membranes in the absence and presence of 1 μM NDP-α-MSH. […] Each assay was conducted in triplicate and the actual mean values are described, with results less than 0% reported as 0%. Ki values for test peptides of the present invention were determined using Graph-Pad Prism® curve-fitting software.

hMC4-R [2] = target: T1, hMC4-R; assay: Competitive binding assay using Eu-NDP-α-MSH (TRF), hMC4-R membranes; conditions: averaged; Eu-NDP-α-MSH (values marked *); read-out: MC4-R Ki
Description: Alternatively, a competitive inhibition binding assay was performed employing Eu-NDP-α-MSH (PerkinElmer Life Sciences catalog No. AD0225) with determination by time-resolved fluorometry (TRF) of the lanthanide chelate. […] After incubation for 90 minutes at 37° C., the reaction was stopped by filtration over AcroWell 96-well filter plates (Pall Life Sciences). The filter plates were washed 4 times with 200 μL of ice-cold phosphate-buffered saline. DELFIA Enhancement solution (PerkinElmer Life Sciences) was added to each well. […] Each assay was conducted in duplicate and mean values were utilized. Ki values were determined by curve-fitting with Graph-Pad Prism® software using a one-site fixed-slope competition binding model.

Ki (hMC4-R [1]) [nM]	Ki (hMC4-R [2]) [nM]	SMILES
4290		CC(=O)N[C@@H](CCCNC(=N)N)C(=O)N[C@H]1CC(=O)NCCCC[C@@H](C(N)=O)NC(=O)[C@H](Cc2c[nH]c3ccccc23)NC(=O)[C@H](CCCCN)NC(=O)[C@@H](Cc2ccccc2)NC(=O)[C@H](CO)NC1=O [compound 4, Ac-Arg-cyclo(Asp-Ser- D-Phe-Lys-Trp-Lys)- NH2]
0.7		CC(=O)N[C@@H](CCCNC(=N)N)C(=O)N[C@H]1CCC(=O)NCCC[C@@H](C(N)=O)NC(=O)[C@H](Cc2c[nH]c3ccccc23)NC(=O)[C@H](CCCNC(=N)N)NC(=O)[C@@H](Cc2ccccc2)NC(=O)[C@H](CCCNC(=N)N)NC1=O [compound 102, Ac-Arg-cyclo(Glu-Arg- D-Phe-Arg-Trp-Orn)- NH2]
	2	CC(=O)N[C@@H](CCCNC(=N)N)C(=O)N[C@H]1CCNC(=O)CCC[C@@H](C(N)=O)NC(=O)[C@H](Cc2c[nH]c3ccccc23)NC(=O)[C@H](CCCNC(=N)N)NC(=O)[C@@H](Cc2ccccc2)NC(=O)[C@H](Cc2c[nH]cn2)NC1=O [compound 128, Ac-Arg-cyclo(Dab-His- D-Phe-Arg-Trp-hGlu)- NH2]
